scFv variants of Ab-14 (light chain) against a SARS-CoV-2 spike peptide

From the AlphaSeq antibody data of Engelhart et al. 2022 (doi:10.1038/s41597-022-01779-4), copy in the FLAb collection.

Target peptide (SARS-CoV-2 spike, HR2 region): PDVDLGDISGINAS

Parent: Ab-14, a human scFv built as VH, a 15-residue (Gly4Ser)3 linker, VL. Only the CDRs of the light chain vary.
VH: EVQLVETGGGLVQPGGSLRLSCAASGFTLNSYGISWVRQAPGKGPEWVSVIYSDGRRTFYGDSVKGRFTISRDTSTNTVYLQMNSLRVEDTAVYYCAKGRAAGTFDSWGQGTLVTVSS
VL: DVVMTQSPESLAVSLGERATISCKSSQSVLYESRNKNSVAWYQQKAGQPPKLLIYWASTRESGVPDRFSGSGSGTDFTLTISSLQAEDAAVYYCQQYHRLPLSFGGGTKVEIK

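The parent was found by panning a naive human phage display library on the peptide. Library AAYL50 holds single substitutions and randomly drawn double and triple substitutions in the CDRs. The assay is AlphaSeq: two haploid yeast populations carry antibody and antigen on their surface. After mating in shaken culture at 30 °C for 16 h, diploids were selected and their barcode pairs sequenced. Each replicate has its own calibration line, from reference interactions of the BCL2 family. There are three technical replicates.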

Variants are written as CDR1, CDR2 and CDR3 of the light chain (limits as in the source). Parent: KSSQSVLYESRNKNSVA, WASTRES, QQYHRLPLS. The read-out is the apparent dissociation constant on a log10 scale (nM): the lower, the stronger. The mean shown is taken over the replicates in which the pair was detected. "n.d." means that the variant was in the library but no mating with the target was seen in that replicate; the authors take this as a sign of poor binding, and no number exists.

CDR-L1,CDR-L2,CDR-L3,log10 Kd (nM) by replicate,"mean, log10 nM",signal with controls
KSSQSVLYTSRNKNSVA,FASTREK,QQYHRLPLS,1.70 / 1.50 / 1.68,1.62,1/9 (3.40)
KSSQSVLYESRNLNSVA,WASTRES,QQYCRLPLT,0.09 / 0.39 / 0.44,0.30,2/9 (3.49)
KSSQSVLHESRNKNSVA,WASTRES,QQWHRLPKS,2.72 / 2.63 / 2.57,2.64,1/9 (4.97)
KSSQSHLYVSRNKNSVA,WASTRES,QQYHRLPLS,2.75 / 2.38 / 2.67,2.60,6/9 (4.21)
KSSQSVLYESRNLNSVA,WASTRES,QQYKGLPLS,1.59 / 2.64 / 2.04,2.09,1/9 (3.40)
KSSLSVLYESRNKNDVA,WASYRES,QQYHRLPLS,2.76 / 2.03 / 2.60,2.47,2/9 (4.23)
KGSQSVLYESRNDNSVA,WASTRES,QQIHRLPLS,n.d. / n.d. / 3.20,3.20,0/9
KSSQSVLYESRNKNHVA,WASTRES,QNYHRLPLS,n.d. / n.d. / n.d.,n.d.,0/9
KESQSVLYQSRNKNSVA,WASTAES,QQYHRLPLS,n.d. / n.d. / n.d.,n.d.,0/9
KQSQSVLYESRNRNSVA,WASTRES,QQYHRLRLS,n.d. / 3.30 / 4.40,3.85,2/9 (3.65)
WSSQSVLYEFRNKNSVA,WAVTRES,QQYHRLPLS,n.d. / n.d. / 4.69,4.69,5/9 (4.49)
KSSQSVPYESRNNNSVA,WASTRES,QQYWRLPLS,0.32 / 0.51 / 0.50,0.44,4/9 (4.34)
KSSQSVLYESRNWNSVA,WASTQES,QQYHRLRLS,4.53 / 4.68 / n.d.,4.61,6/9 (4.61)
KSSQSVLYPSRNKNSVW,SASTRES,QQYHRLPLS,4.37 / n.d. / 4.05,4.21,5/9 (5.00)
KSSQMVLYESRNKNSVT,WASTRES,QQYHRFPLS,n.d. / n.d. / n.d.,n.d.,0/9
KMSQSVLYESRNKNSVA,WASTREM,QQYHRLPLS,-0.30 / 0.06 / -0.16,-0.13,2/9 (5.24)
TSSASVLYESRNKESVA,WASTRES,QQYHRLPLS,2.73 / 2.81 / 2.17,2.57,0/9
KSSQSVLYHSRNKNSVA,WASTRES,QQYMRVPLS,n.d. / 3.77 / n.d.,3.77,1/9 (3.23)
KWSQSSLNESRNKNSVA,WASTRES,QQYHRLPLS,1.38 / 1.55 / 1.64,1.52,5/9 (4.08)
KSSQSVLYESRNKNSVA,WASTRET,QWEHRLPLS,n.d. / n.d. / n.d.,n.d.,0/9
KSSQSVLYESRNKNSVA,WASTRES,PQYYRLPLS,1.49 / 1.62 / 1.93,1.68,4/9 (4.16)
KSSQSVLYESRNKNSVA,HAHTRES,QQYHRLPSS,0.98 / 1.10 / 0.89,0.99,2/9 (3.84)
KSSQSVLYESRNKNSWA,WASTRES,QLYRRLPLS,n.d. / n.d. / n.d.,n.d.,0/9
KSVQSVLYESRNKNSVV,WASTRMS,QQYHRLPLS,n.d. / n.d. / n.d.,n.d.,0/9
KSSQSVLYESRNKNSVA,WASTRIS,QQYCSLPLS,1.91 / 1.93 / 2.08,1.97,1/9 (5.40)
KSMQSVLYESRNKNSVA,WASTRES,QRYHRLPSS,n.d. / 3.18 / n.d.,3.18,2/9 (4.50)
KSSQSVQYESRNFNSVA,WASTRES,QQYHRLLLS,n.d. / n.d. / n.d.,n.d.,0/9
KSSQSVLYTFRSKNSVA,WASTRES,QQYHRLPLS,2.63 / 2.71 / 2.63,2.65,2/9 (4.01)
KSSQPVRYESRNKNSVA,WASTRES,QQYHRLPLS,n.d. / 3.04 / 5.56,4.30,3/9 (4.75)
KSSQSVLYESRNKNKVA,VASTRES,QEYHRLPLS,n.d. / n.d. / n.d.,n.d.,0/9
KSSQSVIYEPRNKHSVA,WASTRES,QQYHRLPLS,2.19 / 2.37 / 2.24,2.27,4/9 (4.39)
KSSQSVLYEARNKNLVA,WASTRES,QQYHQLPLS,n.d. / n.d. / n.d.,n.d.,1/9 (4.15)
KSSQSVGYESRNKNRVA,WFSTRES,QQYHRLPLS,n.d. / n.d. / n.d.,n.d.,0/9
KSSQSVLYESRNKNKYA,WASTRES,QMYHRLPLS,n.d. / 3.73 / n.d.,3.73,5/9 (4.12)
KESQSVLYESLNKNSVA,WASTRES,QQCHRLPLS,2.29 / 2.66 / 2.84,2.60,3/9 (4.00)
KSSQSVLEESRVKNSVA,WASTRES,QQYHRFPLS,0.57 / 0.76 / 0.61,0.65,2/9 (3.54)
KSSQLVLYESRNKNSVA,WAWTRES,QQYHRLLLS,n.d. / 4.54 / n.d.,4.54,2/9 (3.59)
KSSQAVLYESRPKNSVA,WASTRKS,QQYHRLPLS,n.d. / n.d. / n.d.,n.d.,0/9
KNSQSVLYESTNMNSVA,WASTRES,QQYHRLPLS,0.73 / 0.97 / 0.99,0.90,4/9 (4.78)
KSSQSVLYWSRQKNSVA,WASTRES,QQYHRLPAS,n.d. / n.d. / n.d.,n.d.,2/9 (3.63)
KSSQSVLYESRNKNSVA,NASTRES,QQYHELPLS,0.82 / 1.58 / 1.68,1.36,0/9
KSVQSVLYESRNKNVVA,WASVRES,QQYHRLPLS,n.d. / n.d. / n.d.,n.d.,0/9
KSSQSVLYESRNKNSVA,DAYTRES,QQYHRLPLS,-0.50 / -0.03 / -0.54,-0.36,1/9 (4.05)
KSSQSVLEESRNKNSSA,WASTRES,QQYHREPLS,4.93 / n.d. / n.d.,4.93,1/9 (3.40)
KGSQSVLYESRNKNSVA,NASTRES,QQYHYLPLS,0.07 / 0.37 / 0.19,0.21,4/9 (4.72)
KSSQSVLYESRNKNSQA,WASCRES,QQYHRLWLS,n.d. / n.d. / n.d.,n.d.,2/9 (4.08)
KSSQSVLYEERNKNKVA,WAQTRES,QQYHRLPLS,4.17 / 3.50 / n.d.,3.84,2/9 (2.74)
KISQSVLYESRNKNSVH,WASTRES,QQYERLPLS,n.d. / n.d. / n.d.,n.d.,0/9
KQSQSVLSVSRNKNSVA,WASTRES,QQYHRLPLS,1.33 / 1.44 / 1.42,1.40,5/9 (4.73)
KSSQDVLYESRNKNSVA,WASTRES,QQYHRTPLS,0.49 / 0.75 / 0.49,0.58,0/9
KSSWSVLYESRNKNSVA,WQQTRES,QQYHRLPLS,2.68 / 3.18 / n.d.,2.93,1/9 (3.33)
KSTQSVLYEQRNKNSVA,WASTRES,IQYHRLPLS,1.78 / 2.12 / 1.80,1.90,0/9

The closing 8 entries, repeated:

CDR-L1,CDR-L2,CDR-L3,log10 Kd (nM) by replicate,"mean, log10 nM",signal with controls
KGSQSVLYESRNKNSVA,NASTRES,QQYHYLPLS,0.07 / 0.37 / 0.19,0.21,4/9 (4.72)
KSSQSVLYESRNKNSQA,WASCRES,QQYHRLWLS,n.d. / n.d. / n.d.,n.d.,2/9 (4.08)
KSSQSVLYEERNKNKVA,WAQTRES,QQYHRLPLS,4.17 / 3.50 / n.d.,3.84,2/9 (2.74)
KISQSVLYESRNKNSVH,WASTRES,QQYERLPLS,n.d. / n.d. / n.d.,n.d.,0/9
KQSQSVLSVSRNKNSVA,WASTRES,QQYHRLPLS,1.33 / 1.44 / 1.42,1.40,5/9 (4.73)
KSSQDVLYESRNKNSVA,WASTRES,QQYHRTPLS,0.49 / 0.75 / 0.49,0.58,0/9
KSSWSVLYESRNKNSVA,WQQTRES,QQYHRLPLS,2.68 / 3.18 / n.d.,2.93,1/9 (3.33)
KSTQSVLYEQRNKNSVA,WASTRES,IQYHRLPLS,1.78 / 2.12 / 1.80,1.90,0/9

Empty control strains, which show no peptide, gave a signal in 18% of pairings with library AAYL50; the median was 4.19 and 95% of these signals were weaker than 2.99. No background was subtracted. Also given: how often the same scFv was detected with the empty control strains, with their mean in brackets. In this assay the parent's reference entry averaged 0.65; its copy inside this library read 1.68.